Reference: EP4731682A1 (dated 2026)

Amino acid sequences for entries named in this document (tags omitted). Residues count along the entry.
UniProt Q08722, 19-323: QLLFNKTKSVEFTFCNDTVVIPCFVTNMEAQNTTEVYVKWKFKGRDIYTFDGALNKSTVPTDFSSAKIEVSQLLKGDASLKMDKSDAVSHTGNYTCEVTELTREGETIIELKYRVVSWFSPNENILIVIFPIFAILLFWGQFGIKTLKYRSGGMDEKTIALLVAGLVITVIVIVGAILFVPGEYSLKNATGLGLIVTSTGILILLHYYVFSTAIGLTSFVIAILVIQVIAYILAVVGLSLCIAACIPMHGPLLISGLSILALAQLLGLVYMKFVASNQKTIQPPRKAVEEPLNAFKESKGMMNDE

Legend:
[1] = target: T1, recombinant PVR-ECD/Fc fusion protein (human, biotinylated (Biotin-PVR-ECD/Fc; sites not stated)); assay: ELISA; binder coated 1 ug/mL, serially diluted Biotin-PVR-ECD/Fc, HRP-avidin (FIG. 2A)
T1 construct: also called Biotin-PVR-ECD/Fc

[2] = target: T2, CD47 expressed on transfected cells (CD47 tf CHO-S cells) (human, UniProt Q08722); assay: flow cytometry on CD47 tf CHO-S cells, PE anti-human IgG Fc (FIG. 3B)
T2 construct: whole, on cells; also called CD47 tf cells

[3] = target: T3, PD-L1 expressed on transfected cells (PD-L1 tf CHO-S cells; PD-L1 tf OE19 cells; PD-L1 tf aAPC/CHO-K1 cells) (human); assay: flow cytometry on PD-L1 tf CHO-S cells, PE anti-human IgG Fc (FIG. 3A)
T3 construct: whole, on cells; The cell line of each entry is named under assay; also called PD-L1 tf cells

[4] = target: T4, recombinant human Nectin-2-ECD/Fc fusion protein (human, UniProt Q92692 32-360); assay: ELISA; Nectin-2-ECD/Fc coated 1 ug/mL, biotinylated binder, HRP-avidin (FIG. 2B)
T4 construct: extracellular domain; Bought reagent; not shown: Fc of the bought fusion protein
T4 sequence (looked up): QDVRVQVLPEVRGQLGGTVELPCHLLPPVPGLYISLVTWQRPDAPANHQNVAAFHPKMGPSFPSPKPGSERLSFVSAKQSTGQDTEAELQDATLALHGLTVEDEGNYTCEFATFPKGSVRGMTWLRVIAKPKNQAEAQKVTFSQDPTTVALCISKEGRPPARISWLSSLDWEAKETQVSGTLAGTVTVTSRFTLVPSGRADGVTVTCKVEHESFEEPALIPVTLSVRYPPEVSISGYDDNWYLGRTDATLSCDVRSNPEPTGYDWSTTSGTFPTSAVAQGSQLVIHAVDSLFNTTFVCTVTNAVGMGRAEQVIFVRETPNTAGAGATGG

Measured: binding result

B1: TgPS-C1_v1 (Fc fusion)
chain: DSPDRPWNPPTFSPALLVVTEGDNATFTCSFSNTSESFVLNWYRMSPSNQTDKLAAFPEDRSQPGQDCRFRVTQLPNGRDFHMSVVRARRNDSGTYLCGAISLAPKAQIKESLRAELRVTERRAEVPTAHPSPSPRPAGQFQTLVGSGGSGGSGGSGGSGMMTGTIETTGNISAEKGGSIILQCHLSSTTAQVTQVNWEQQDQLLAICNADLGWHISPSFKDRVAPGPGLGLTLQSLTVNDTGEYFCIYHTYPDGTYTGRIFLEVLESSVAEHGARAS[human IgG1 Fc with changes not shown]AAASSGGGGSGGGGSEE[about 120 residues not shown]
notes: Two identical chains; Expressed in CHO-S cells; Biotinylated in the Nectin-2 ELISA
binds: [1] | [2] | [3]

B2: TgPS-F_v1 (Fc fusion)
chain: DSPDRPWNPPTFSPALLVVTEGDNATFTCSFSNTSESFVLNWYRMSPSNQTDKLAAFPEDRSQPGQDCRFRVTQLPNGRDFHMSVVRARRNDSGTYLCGAISLAPKAQIKESLRAELRVTERRAEVPTAHPSPSPRPAGQFQTLVGSGGSGGSGGSGGSGEE[about 120 residues not shown]KPSASESKYGPPCPPCPAPEFLGGPSVFLFPPKPKDTLMISRTPEVTCVVVDVSQEDPEVQFNWYVDGVEVHNAKTKPREEQFNSTYRVVSVLTVLHQDWLNGKEYKCKVSNKGLPSSIEKTISKAKGQPREPQVYTLPPSQEEMTKNQVSLTCLVKGFYPSDIAVEWESNGQPENNYKTTPPVLDSDGSFFLYSRLTVDKSRWQEGNVFSCSVMHEALHNHYTQKSLSLSLGKAAASSGGGGSGGGGSMMTGTIETTGNISAEKGGSIILQCHLSSTTAQVTQVNWEQQDQLLAICNADLGWHISPSFKDRVAPGPGLGLTLQSLTVNDTGEYFCIYHTYPDGTYTGRIFLEVLESSVAEHGAR
notes: Two identical chains; Biotinylated in the Nectin-2 ELISA
binds: all assays above

B3: TgPS-C2_v1 (Fc fusion)
chain: DSPDRPWNPPTFSPALLVVTEGDNATFTCSFSNTSESFVLNWYRMSPSNQTDKLAAFPEDRSQPGQDCRFRVTQLPNGRDFHMSVVRARRNDSGTYLCGAISLAPKAQIKESLRAELRVTERRAEVPTAHPSPSPRPAGQFQTLVGSGGSGGSGGSGGSGMMTGTIETTGNISAEKGGSIILQCHLSSTTAQVTQVNWEQQDQLLAICNADLGWHISPSFKDRVAPGPGLGLTLQSLTVNDTGEYFCIYHTYPDGTYTGRIFLEVLESSVAEHGARASESKYGPPCPPCPAPEFLGGPSVFLFPPKPKDTLMISRTPEVTCVVVDVSQEDPEVQFNWYVDGVEVHNAKTKPREEQFNSTYRVVSVLTVLHQDWLNGKEYKCKVSNKGLPSSIEKTISKAKGQPREPQVYTLPPSQEEMTKNQVSLTCLVKGFYPSDIAVEWESNGQPENNYKTTPPVLDSDGSFFLYSRLTVDKSRWQEGNVFSCSVMHEALHNHYTQKSLSLSLGKAAASSGGGGSGGGGSEE[about 120 residues not shown]
notes: as for B2
binds: all assays above

B4: TgPS-D_v1 (Fc fusion)
chain: MMTGTIETTGNISAEKGGSIILQCHLSSTTAQVTQVNWEQQDQLLAICNADLGWHISPSFKDRVAPGPGLGLTLQSLTVNDTGEYFCIYHTYPDGTYTGRIFLEVLESSVAEHGARGSGGSGGSGGSGGSGDSPDRPWNPPTFSPALLVVTEGDNATFTCSFSNTSESFVLNWYRMSPSNQTDKLAAFPEDRSQPGQDCRFRVTQLPNGRDFHMSVVRARRNDSGTYLCGAISLAPKAQIKESLRAELRVTERRAEVPTAHPSPSPRPAGQFQTLVASESKYGPPCPPCPAPEFLGGPSVFLFPPKPKDTLMISRTPEVTCVVVDVSQEDPEVQFNWYVDGVEVHNAKTKPREEQFNSTYRVVSVLTVLHQDWLNGKEYKCKVSNKGLPSSIEKTISKAKGQPREPQVYTLPPSQEEMTKNQVSLTCLVKGFYPSDIAVEWESNGQPENNYKTTPPVLDSDGSFFLYSRLTVDKSRWQEGNVFSCSVMHEALHNHYTQKSLSLSLGKAAASSGGGGSGGGGSEE[about 120 residues not shown]
notes: as for B2
binds: all assays above

B5: TgPS-E_v1 (Fc fusion)
chain: MMTGTIETTGNISAEKGGSIILQCHLSSTTAQVTQVNWEQQDQLLAICNADLGWHISPSFKDRVAPGPGLGLTLQSLTVNDTGEYFCIYHTYPDGTYTGRIFLEVLESSVAEHGARASESKYGPPCPPCPAPEFLGGPSVFLFPPKPKDTLMISRTPEVTCVVVDVSQEDPEVQFNWYVDGVEVHNAKTKPREEQFNSTYRVVSVLTVLHQDWLNGKEYKCKVSNKGLPSSIEKTISKAKGQPREPQVYTLPPSQEEMTKNQVSLTCLVKGFYPSDIAVEWESNGQPENNYKTTPPVLDSDGSFFLYSRLTVDKSRWQEGNVFSCSVMHEALHNHYTQKSLSLSLGKAAASSGGGGSGGGGSEE[about 120 residues not shown]KPSGSGGSGGSGGSGGSGDSPDRPWNPPTFSPALLVVTEGDNATFTCSFSNTSESFVLNWYRMSPSNQTDKLAAFPEDRSQPGQDCRFRVTQLPNGRDFHMSVVRARRNDSGTYLCGAISLAPKAQIKESLRAELRVTERRAEVPTAHPSPSPRPAGQFQTLV
notes: as for B2
binds: all assays above

B6: PD-1/G4Fc (Fc fusion)
chain: DSPDRPWNPPTFSPALLVVTEGDNATFTCSFSNTSESFVLNWYRMSPSNQTDKLAAFPEDRSQPGQDCRFRVTQLPNGRDFHMSVVRARRNDSGTYLCGAISLAPKAQIKESLRAELRVTERRAEVPTAHPSPSPRPAGQFQTLVESKYGPPCPPCPAPEFLGGPSVFLFPPKPKDTLMISRTPEVTCVVVDVSQEDPEVQFNWYVDGVEVHNAKTKPREEQFNSTYRVVSVLTVLHQDWLNGKEYKCKVSNKGLPSSIEKTISKAKGQPREPQVYTLPPSQEEMTKNQVSLTCLVKGFYPSDIAVEWESNGQPENNYKTTPPVLDSDGSFFLYSRLTVDKSRWQEGNVFSCSVMHEALHNHYTQKSLSLSLG
notes: PD-1 extracellular domain fused to an IgG4 Fc; also called Biotin-PD-1/G4Fc
binds: [3]
